These are literature values, as cited in US9757461B2, “GnRH analogue formulations” (CAMURUS AB, priority 2005, dated 2017).

For this series the following is noted: native GLP-1.

Take GLP-1: the Plasma half-life entry was “below 2 minutes”.
